For one molecule, Ki results are on record in ChEMBL document CHEMBL1129668 (J Med Chem, 1996).

Sequences of proteins named here, by UniProt entry; tags and fusion partners are left off.
UniProt Q9WTR4, whole entry: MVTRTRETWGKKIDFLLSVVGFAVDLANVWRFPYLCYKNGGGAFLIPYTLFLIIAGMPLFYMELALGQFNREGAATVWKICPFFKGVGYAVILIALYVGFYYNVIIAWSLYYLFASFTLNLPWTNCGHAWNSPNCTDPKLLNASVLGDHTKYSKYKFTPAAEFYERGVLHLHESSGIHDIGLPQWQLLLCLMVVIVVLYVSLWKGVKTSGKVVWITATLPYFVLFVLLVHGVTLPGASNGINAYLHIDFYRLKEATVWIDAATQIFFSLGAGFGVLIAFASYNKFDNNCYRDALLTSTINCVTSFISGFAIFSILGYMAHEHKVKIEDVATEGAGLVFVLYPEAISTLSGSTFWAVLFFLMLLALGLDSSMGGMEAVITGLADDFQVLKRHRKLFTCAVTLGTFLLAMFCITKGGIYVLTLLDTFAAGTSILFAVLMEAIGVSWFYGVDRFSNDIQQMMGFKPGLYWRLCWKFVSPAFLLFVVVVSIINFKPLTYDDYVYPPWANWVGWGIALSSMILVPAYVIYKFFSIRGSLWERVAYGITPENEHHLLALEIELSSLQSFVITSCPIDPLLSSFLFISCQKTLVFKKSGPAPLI

The target of this test is Norepinephrine transporter (Rattus norvegicus, UniProt Q9WTR4). Nature of the test: In vitro binding affinity towards Norepinephrine transporter rat cerebral cortical homogenates by [3H]nisoxetine displacement. In a few lines: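 Crude membrane fraction of rat frontoparietal cerebral cortex in 50 mM Tris-HCl (pH 7.4) with Na+, K+ (5 mM). […] Typically six concentrations in duplicate; curves computer-fit for IC50, converted to Ki = IC50/(1 + [L]/K_d).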

As usually defined, the Ki is a dissociation constant, usually derived from enzyme kinetics or from competition with a known ligand. As for `COC(=O)[C@H]1[C@@H](OC(=O)c2ccccc2)C[C@@H]2CC[C@H]1N2C` [COCAINE], the inhibition constant (Ki) was above 30 µM.
